Molecular target: Poly [ADP-ribose] polymerase 1 (Homo sapiens, UniProt P09874)
Assay: Potency index, ratio of olaparib IC50 to test compound IC50 for inhibition of PARP1 (unknown origin)

Amino acid sequences for entries named in this document (tags omitted).
UniProt P09874, whole entry: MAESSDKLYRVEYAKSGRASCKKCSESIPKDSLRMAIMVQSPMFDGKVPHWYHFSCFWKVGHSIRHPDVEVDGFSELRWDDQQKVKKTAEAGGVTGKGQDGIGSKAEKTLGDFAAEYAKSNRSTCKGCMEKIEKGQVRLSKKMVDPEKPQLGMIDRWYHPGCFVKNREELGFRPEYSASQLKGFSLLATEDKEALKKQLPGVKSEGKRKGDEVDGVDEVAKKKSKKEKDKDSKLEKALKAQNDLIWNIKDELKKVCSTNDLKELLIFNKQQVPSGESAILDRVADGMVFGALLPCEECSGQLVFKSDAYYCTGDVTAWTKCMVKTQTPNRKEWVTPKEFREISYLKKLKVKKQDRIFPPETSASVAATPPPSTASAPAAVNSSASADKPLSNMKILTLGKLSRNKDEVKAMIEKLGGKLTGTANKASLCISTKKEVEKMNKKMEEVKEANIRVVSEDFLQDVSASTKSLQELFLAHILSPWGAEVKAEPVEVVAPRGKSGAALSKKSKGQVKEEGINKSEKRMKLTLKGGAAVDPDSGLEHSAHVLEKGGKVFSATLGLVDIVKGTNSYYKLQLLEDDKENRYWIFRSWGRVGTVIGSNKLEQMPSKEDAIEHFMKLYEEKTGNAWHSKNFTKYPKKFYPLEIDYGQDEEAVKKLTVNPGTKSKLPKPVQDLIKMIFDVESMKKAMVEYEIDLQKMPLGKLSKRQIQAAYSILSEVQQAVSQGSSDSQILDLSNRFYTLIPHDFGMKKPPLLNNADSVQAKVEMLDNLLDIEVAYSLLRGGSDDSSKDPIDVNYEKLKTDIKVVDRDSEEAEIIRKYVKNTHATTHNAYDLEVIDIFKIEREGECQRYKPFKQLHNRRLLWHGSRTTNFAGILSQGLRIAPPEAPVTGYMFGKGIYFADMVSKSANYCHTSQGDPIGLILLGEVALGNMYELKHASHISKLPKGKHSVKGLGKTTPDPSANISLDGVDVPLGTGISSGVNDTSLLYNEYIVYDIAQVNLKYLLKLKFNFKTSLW

Ratio IC50: 4
Structure (SMILES): NC(=O)c1cncc2[nH]c(C3CCN(C(=O)c4cc(Cc5n[nH]c(=O)c6ccccc56)ccc4F)CC3)nc12

Reference: ChEMBL document CHEMBL4819147, “Design, synthesis and biological evaluation of novel molecules as potent PARP-1 inhibitors” (Bioorg Med Chem Lett, 2021)
